PubChem BioAssay AID485358 (National Center for Advancing Translational Sciences (NCATS), 2010)
The entries are a selection whose mix differs from that of the whole data set. The source made the active and inactive calls.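 The calls were made as follows: active = activation over 3 SD above normal in the single-dose calcium agonist read (cut at about 30% in these data); inactive = the rest.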

Sequences of proteins named here, by UniProt entry; tags and fusion partners are left off.
UniProt P14416, whole entry: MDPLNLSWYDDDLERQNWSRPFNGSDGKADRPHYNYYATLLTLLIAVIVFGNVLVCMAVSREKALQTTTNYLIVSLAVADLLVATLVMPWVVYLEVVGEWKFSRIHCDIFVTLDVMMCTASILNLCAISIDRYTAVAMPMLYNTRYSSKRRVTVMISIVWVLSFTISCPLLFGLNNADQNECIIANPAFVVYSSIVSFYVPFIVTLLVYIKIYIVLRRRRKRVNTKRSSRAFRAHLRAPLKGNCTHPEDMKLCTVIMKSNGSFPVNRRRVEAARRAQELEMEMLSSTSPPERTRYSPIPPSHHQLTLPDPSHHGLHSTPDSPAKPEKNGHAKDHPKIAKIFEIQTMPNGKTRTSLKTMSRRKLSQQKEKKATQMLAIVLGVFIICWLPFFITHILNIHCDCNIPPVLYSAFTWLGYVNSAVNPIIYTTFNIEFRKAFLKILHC

Molecular target: D(2) dopamine receptor (Homo sapiens) (UniProt P14416)
Assay: HTS Assay for Allosteric Agonists of the Human D2 Dopamine Receptor: Primary Screen for Agonists; also: 0% is about no effect
Details: HEK293 T-REx D2 cells, calcium flux agonist mode; at 2 µM; active compounds read high
Description: NIH Chemical Genomics Center [NCGC] NIH Molecular Libraries Probe Centers Network [MLPCN] MLPCN Grant: NS064831-01 Assay Submitter (PI): David Sibley Dopamine receptors (DARs) are involved in the etiology and/or therapy of a number of neuropsychiatric and endocrine disorders. For instance, all receptor-based antiparkinsonian drugs work via stimulating the D2 DAR subtype whereas all FDA-approved antipsychotic agents are antagonists of this receptor. […] There are three different types of allosteric modulators that we are seeking, two of which will stimulate or augment receptor signaling, allosteric agonists and potentiators, while the third, allosteric antagonists, will attenuate receptor signaling. The present primary screening assay measures compound agonism by tracking calcium flux in a […], inducible Hek293 Trex D2 cell line.
Freshly passaged cells are plated in 1536 well black, clear bottom plates at a density of 4000 cells/well in 3 ul of complete media containing 1x tetracycline inducer. After an overnight incubation at […] in 5% CO2, cells are loaded with 2 ul of the no wash Calcium Assay Kit (ABD Bioquest) and incubated at room temperature for 30 to 90 minutes. Agonist read: A 10 cycle (1 second/cycle) baseline measurement is taken and then the FDSS online 1536 pintool delivers 23 nl of compound library (as well as dopamine controls) to the plate. The plate is measured for kinetically at 1 cycle/sec for 180 seconds and is considered to be the agonist portion of the assay (eg, compounds which activate a positive calcium response during this portion are flagged as potential agonists). Following the 180 second read, 1 ul of either an EC20 (positive modulation assay) or EC80 (negative modulation assay) is delivered by an onboard pipette head. Measurements are taken kinetically for an additional 180 seconds.

| Structure (SMILES) | activation |
| --- | --- |
| CP(=O)(Nc1ccccc1F)Oc1ccccc1 (centres undefined) | inactive: -0.803% |
| CC(C)c1ccc(OP(C)(=O)Nc2ccc(SC(F)(F)F)cc2)cc1 (centres undefined) | inactive: 3.68% |
| O=C(OCCN1CCN(CCOCc2ccccc2)CC1)C(O)(c1ccccc1)c1ccccc1 | inactive: -0.344% |
| COc1ccc(OP(C)(=O)Nc2ccc(SC(F)(F)F)cc2)cc1 (centres undefined) | inactive: 0.86% |
| CP(=O)(Nc1ccccc1)Oc1ccc(F)cc1 (centres undefined) | inactive: 0.287% |
| CCCCCOc1ccc(NP(C)(=O)Oc2ccc(Cl)cc2Cl)cc1 (centres undefined) | inactive: 0.188% |
| COc1ccc(OP(C)(=O)Nc2cccc(Br)c2)cc1 (centres undefined) | inactive: -0.468% |
| CN(C)CCOC(=O)C(O)(c1ccccc1)C1CCCCC1 (centres undefined) | inactive: 0.766% |
| COc1ccc(NP(C)(=O)Oc2ccccc2OC)cc1 (centres undefined) | inactive: -0.124% |
| O=[N+]([O-])c1ccc(OP2(=O)COCCO2)cc1 (centres undefined) | inactive: 0.827% |
| Cc1cc(-c2cccc3ccccc23)c(C)cn1.O=[N+]([O-])c1cc([N+](=O)[O-])c(O)c([N+](=O)[O-])c1 | inactive: 0.325% |
| CP(=O)(Nc1ccc(SC(F)(F)F)cc1)Oc1ccc(F)cc1 (centres undefined) | inactive: 0.426% |
| Cc1ccccc1NP(C)(=O)Nc1ccccc1C | inactive: -0.587% |
| CCN(CC)CC(O)COC(=O)C(O)(c1ccccc1)C1CCCCC1 (centres undefined) | inactive: 0.0243% |
| COc1ccc(OP(C)(=O)Nc2ccc(Br)cc2)cc1 (centres undefined) | inactive: 0.441% |
| COc1ccccc1OP(C)(=O)Nc1c(C)n(C)n(-c2ccccc2)c1=O (centres undefined) | inactive: 0.153% |
| O=C(OCCCN1CCCC1)C(O)(c1ccccc1)C1CCCCC1 (centres undefined) | inactive: -1.81% |
| CP(=O)(Oc1ccccc1)N1CCOC1=O (centres undefined) | inactive: 0.613% |
| CCc1ccc(OP(C)(=O)Nc2cccnc2)cc1 (centres undefined) | inactive: -0.35% |
| COc1ccccc1OP(C)(=O)Nc1ccccc1Br (centres undefined) | inactive: -1.02% |
| CC(C)(C)c1ccc(OP(C)(=O)O)cc1 | inactive: -0.045% |
| CP(=O)(Nc1ccc(Cl)cc1)Oc1ccc(F)cc1 (centres undefined) | inactive: 0.318% |
| CN(C)C(=O)c1c([N+](=O)[O-])cc([N+](=O)[O-])cc1[N+](=O)[O-] | inactive: -0.333% |
| CCOC(=O)c1ccc(NP(C)(=O)Oc2ccc(Cl)cc2)cc1 (centres undefined) | inactive: -1.53% |
| CP(=O)(OC12CC3CC(CC(C3)C1)C2)OC12CC3CC(CC(C3)C1)C2 | inactive: 5.12% |

| Structure (SMILES) | activation |
| --- | --- |
| Cc1cc(C)cc(OP(C)(=O)Nc2cccc(C(F)(F)F)c2)c1 (centres undefined) | inactive: -0.578% |
| COc1ccccc1OP(C)(=O)Nc1ccc(C)c(C)c1 (centres undefined) | inactive: 0.576% |
| COc1ccc(OP(C)(=O)Nc2ccccc2Br)cc1 (centres undefined) | inactive: -0.321% |
| Cc1nc2ccc3ccccc3c2o1.O=[N+]([O-])c1cc([N+](=O)[O-])c(O)c([N+](=O)[O-])c1 | inactive: -1.02% |
| CP(=O)(Nc1ccc(Cl)cc1Cl)Oc1ccccc1 (centres undefined) | inactive: 0.376% |
| CP(=O)(OCCOc1ccccc1)OCCOc1ccccc1 | inactive: -0.309% |
| COc1ccccc1OP(C)(=O)Nc1ccc(Br)cc1 (centres undefined) | inactive: -0.0694% |
| COc1ccc(OP(C)(=O)Nc2ccccn2)cc1 (centres undefined) | inactive: -0.0014% |
| CN(C)CCOC(=O)C(O)(c1ccccc1)C1CCCC1 (centres undefined) | inactive: 0.293% |
| Cc1c(NP(C)(=O)Oc2ccc(C(C)C)cc2)c(=O)n(-c2ccccc2)n1C (centres undefined) | inactive: 0.0159% |
| O=[N+]([O-])c1cc([N+](=O)[O-])c(Nc2ccccn2)c([N+](=O)[O-])c1 | inactive: 2.51% |
| CP(=O)(Nc1ccccn1)Oc1ccccc1 (centres undefined) | inactive: -0.681% |
| COc1ccccc1OP(C)(=O)Nc1ccc(C)cc1C (centres undefined) | inactive: -0.106% |
| CCc1ccc(OP(C)(=O)O)cc1 | inactive: 0.796% |
| CCN(CC)CCCOC(=O)C(O)(c1ccccc1)c1ccccc1 | inactive: 0.931% |
| O=[N+]([O-])c1cc([N+](=O)[O-])c(Nc2cccnc2)c([N+](=O)[O-])c1 | inactive: 12.7% |
| O=[N+]([O-])c1ccc2c(c1)C=Nc1ccccc1O2 | inactive: 0.242% |
| CC(C)(C)c1ccc(OP(C)(=O)Nc2ccc(SC(F)(F)F)cc2)cc1 (centres undefined) | inactive: 1.16% |
| Cc1cccc(C)c1OP(C)(N)=O (centres undefined) | inactive: 5.4% |
| COc1ccccc1OP(C)(=O)Nc1ccc(C)cc1 (centres undefined) | inactive: 0.0092% |
| Cc1ccc(NP(C)(=O)Oc2ccccc2)c(C)c1 (centres undefined) | inactive: 1.04% |
| CCOC(=O)c1ccc(NP(C)(=O)Oc2ccccc2)cc1 (centres undefined) | inactive: 0.742% |
| Cc1cc(C)cc(OP(C)(N)=O)c1 (centres undefined) | inactive: 1.86% |
| COc1ccc(OP(C)(=O)Nc2cccc(F)c2)cc1 (centres undefined) | inactive: 0.247% |
| CP(=S)(Nn1cnnc1)Oc1ccccc1 (centres undefined) | inactive: 0.0508% |

| Structure (SMILES) | activation |
| --- | --- |
| CP(=O)(Nc1ccccc1Br)Oc1ccccc1 (centres undefined) | inactive: 0.91% |
| COc1ccccc1OP(C)(=O)Nc1ccccc1 (centres undefined) | inactive: -0.17% |
| Cc1cccc(C)c1OP(C)(=O)Nc1ccc(SC(F)(F)F)cc1 (centres undefined) | inactive: 2.13% |
| CP(=O)(Nc1ccc(SC(F)(F)F)cc1)Oc1ccc(Cl)cc1 (centres undefined) | inactive: 1.46% |
| CP(=O)(Oc1ccccc1)OC(c1ccccc1)C(F)(F)F (centres undefined) | inactive: 1.25% |
| CP(=O)(NC(=O)Nc1ccccc1)Oc1ccccc1 (centres undefined) | inactive: -0.926% |
| CCc1ccc(OP(C)(=O)N2CCN(c3ccc([N+](=O)[O-])cc3)CC2)cc1 (centres undefined) | inactive: 1.57% |
| Cc1cc(C)cc(OP(C)(=O)Nc2ccc(SC(F)(F)F)cc2)c1 (centres undefined) | inactive: -0.126% |
| CCOC(=O)c1ccc(NP(C)(=O)Oc2ccc(OC)cc2)cc1 (centres undefined) | inactive: 0.0689% |
| CCOP(C)(=S)SCC(=O)NC(C)C(=O)O (centres undefined) | inactive: -2.19% |
| CP(=O)(Nc1ccccn1)Oc1ccc(Cl)cc1 (centres undefined) | inactive: 0.301% |
| O=[N+]([O-])c1cc([N+](=O)[O-])c(-n2nnc3ccccc32)c([N+](=O)[O-])c1 | inactive: 2.74% |
| Cc1nc2ccc3ccccc3c2s1.O=[N+]([O-])c1cc([N+](=O)[O-])c(O)c([N+](=O)[O-])c1 | inactive: 0.302% |
| CC1=C2N=C(C=C3N=C(C(C)=C4[N-][C@@](C)([C@@H]5N=C1[C@](C)(CCC(=O)NC[C@@H](C)OP(=O)([O-])O[C@H]1[C@@H](O)[C@@H](n6cnc7cc(C)c(C)cc76)O[C@@H]1CO)[C@H]5CC(N)=O)[C@@](C)(CC(N)=O)[C@@H]4CCC(N)=O)[C@@](C)(CC(N)=O)[C@@H]3CCC(N)=O)C(C)(C)[C@@H]2CCC(N)=O.[C-]#N.[Co+3] | inactive: -1.52% |
| O=[N+]([O-])c1cc([N+](=O)[O-])c(Nc2nnnn2CCO)c([N+](=O)[O-])c1 | inactive: 1.31% |
| COc1ccccc1OP(C)(=O)Nc1c(C)cccc1C (centres undefined) | inactive: -0.456% |
| CN1CCCCC1COC(=O)C1(O)c2ccccc2CCc2ccccc21 (centres undefined) | inactive: 0.024% |
| CP(=O)(Nc1ccc(SC(F)(F)F)cc1)Oc1ccccc1 (centres undefined) | inactive: 1.94% |
| CC1=NCCc2c1[nH]c1ccccc21.O=[N+]([O-])c1cc([N+](=O)[O-])c(O)c([N+](=O)[O-])c1 | inactive: 0.893% |
| COc1ccccc1OP(C)(=O)Nc1cccc(Br)c1 (centres undefined) | inactive: 3.27% |
| CCOC(=O)c1ccc(NP(C)(=O)Oc2cc(C)cc(C)c2)cc1 (centres undefined) | inactive: 0.105% |
| Cc1ccc(C)c(NP(C)(=O)Oc2ccccc2)c1 (centres undefined) | inactive: -0.449% |
| Cc1cc(C)cc(OP(C)(=O)Nc2ccccn2)c1 (centres undefined) | inactive: -0.577% |
| CP(=O)(Nc1cccc(Br)c1)Oc1ccccc1 (centres undefined) | inactive: 0.342% |
